Measured values: article PMC2199305 (Environmental Health Perspectives, 2007)

The chains behind the UniProt entries cited, without tags or fusion partners. Residues count along the entry.
UniProt P62508, 233-457 limits assumed: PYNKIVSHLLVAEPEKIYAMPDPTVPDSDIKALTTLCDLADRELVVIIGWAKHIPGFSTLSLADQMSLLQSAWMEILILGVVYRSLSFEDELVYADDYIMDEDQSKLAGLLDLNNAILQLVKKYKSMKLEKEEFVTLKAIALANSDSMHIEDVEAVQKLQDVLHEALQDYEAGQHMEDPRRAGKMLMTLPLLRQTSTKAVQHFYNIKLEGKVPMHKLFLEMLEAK

Biological target: recombinant human ERR-γ –LBD (GST-ERR-γ –LBD) (Homo sapiens, UniProt P62508)
Experiment: Saturation binding assay of [3H]BPA with Scatchard plot analysis
Conditions: tested as the radiolabelled form

CC(C)(c1ccc(O)cc1)c1ccc(O)cc1 [BPA, 2,2-bis(4-hydroxyphenyl)propane]
receptor density (Bmax) (Scatchard plot of [3H]BPA saturation binding): 14.4 nmol/mg protein
Specific binding to ERR-γ (nonspecific binding determined with 10 μM unlabeled BPA): approximately 80%
